Data published in US20140212436A1.

Protein sequences, listed by entry. Tags and fused reporters are not part of them. Chains listed by the source or under a name are the forms on record and can include a tag or linker.
UniProt P01854, other isoform, or with tags, fused parts or gaps: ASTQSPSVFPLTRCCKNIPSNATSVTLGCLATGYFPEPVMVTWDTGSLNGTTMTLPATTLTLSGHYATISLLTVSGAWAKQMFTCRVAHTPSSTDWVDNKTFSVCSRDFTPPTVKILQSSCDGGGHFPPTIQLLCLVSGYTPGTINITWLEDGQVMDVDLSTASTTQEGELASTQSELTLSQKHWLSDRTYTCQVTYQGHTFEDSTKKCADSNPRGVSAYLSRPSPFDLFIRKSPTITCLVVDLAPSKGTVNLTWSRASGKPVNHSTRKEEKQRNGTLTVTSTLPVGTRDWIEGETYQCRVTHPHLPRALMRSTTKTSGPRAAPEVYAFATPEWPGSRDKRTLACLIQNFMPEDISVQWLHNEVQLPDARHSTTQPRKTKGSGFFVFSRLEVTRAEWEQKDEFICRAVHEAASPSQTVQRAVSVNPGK

Molecular target: IgE (from a human IgE ELISA kit, Bethyl Laboratories) (human) (UniProt P01854)
Assay: sandwich ELISA, antibody coated as capture; the concentration is that of IgE

Substance: Omalizumab_IgG1_G236R/L328R (antibody)
- EC50 (read off the curve): 0.04 µg/mL
